# Literature values in patent US20190038611A1, “Novel CYP34A-Specific Inhibitors and Methods of Using Same” (THE REGENTS OF THE UNIVERSITY OF CALIFORNIA, priority 2015, published 2019).
# Chains of the proteins cited; added tags and fusions are not shown. A line that says so, or that is headed by a name, gives the form on record, which may keep a tag or linker. Residues count along the entry.
# UniProt P08684, 23-503 with tags or gaps limits assumed: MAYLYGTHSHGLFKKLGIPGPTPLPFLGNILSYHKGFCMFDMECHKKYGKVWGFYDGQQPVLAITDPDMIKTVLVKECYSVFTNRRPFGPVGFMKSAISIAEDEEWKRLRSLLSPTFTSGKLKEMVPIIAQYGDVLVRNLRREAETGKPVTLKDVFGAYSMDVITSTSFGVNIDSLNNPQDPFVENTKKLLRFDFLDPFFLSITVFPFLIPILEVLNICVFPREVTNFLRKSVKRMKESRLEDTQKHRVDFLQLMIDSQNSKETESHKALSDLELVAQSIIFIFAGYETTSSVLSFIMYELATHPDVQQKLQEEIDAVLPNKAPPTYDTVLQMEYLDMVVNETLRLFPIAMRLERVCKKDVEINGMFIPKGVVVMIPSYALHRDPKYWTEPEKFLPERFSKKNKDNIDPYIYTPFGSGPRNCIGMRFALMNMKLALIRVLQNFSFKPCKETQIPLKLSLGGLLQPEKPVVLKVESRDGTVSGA
# Target: CYP3A4 (Homo sapiens, UniProt P08684)
# Conditions: determined previously (Sevrioukova and Poulos 2010, 2013); cited from earlier work
compound,measurement,value
CC(C)c1nc(CN(C)C(=O)N[C@@H](C(=O)N[C@@H](CC[C@H](Cc2ccccc2)NC(=O)OCc2cccnc2)Cc2ccccc2)C(C)C)cs1,kfast (rate constant for the fast phase of the binding reaction),7.0 s⁻¹
